2 molecules from PubChem BioAssay AID1478 (National Center for Advancing Translational Sciences (NCATS), 2009) can be followed below.

Protein sequences, listed by entry. Tags and fused reporters are not part of them. Residues count along the entry.
UniProt P25779, 123-467 limits assumed: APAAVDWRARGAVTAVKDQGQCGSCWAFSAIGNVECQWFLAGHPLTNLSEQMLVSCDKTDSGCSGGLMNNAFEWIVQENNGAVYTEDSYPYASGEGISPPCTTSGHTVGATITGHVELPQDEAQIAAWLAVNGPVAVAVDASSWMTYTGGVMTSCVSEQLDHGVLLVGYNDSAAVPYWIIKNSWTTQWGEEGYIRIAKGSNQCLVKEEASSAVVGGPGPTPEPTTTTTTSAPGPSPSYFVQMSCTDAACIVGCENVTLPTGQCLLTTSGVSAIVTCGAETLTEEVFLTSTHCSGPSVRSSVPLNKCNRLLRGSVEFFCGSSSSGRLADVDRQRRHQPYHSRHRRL

“And” between values parts separate entries of the source, which are not always exact repeats. Identical values can stand only once. The entries are a selection whose mix differs from that of the whole data set. The source made the active and inactive calls. Calls come from the whole dose curve; as a rule, active = well fitted inhibition curve with a large enough effect; inconclusive = small, poorly fitted or top-dose-only effect; inactive = flat fitted curve, though single readings scatter.

The test has as its target Cruzipain (Trypanosoma cruzi) (UniProt P25779). Put plainly: qHTS Assay for Promiscuous and Specific Inhibitors of Cruzain (with detergent).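 Note: plate controls were neutral wells for no effect and buffer without enzyme for full effect; nearly all actives have a fitted effect of over 40% in size.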 The settings on record: purified cruzain, Z-FR-AMC fluorescence, 0.01% Triton. On the procedure:
Cruzain (3.4.22.51) is a cysteine protease from the tropical parasite Trypanosoma cruzi. Dual qHTS experiment was performed against the NCGC compound collection in order to 1) identify novel inhibitors of the enzyme and 2) profile the compound collection for promiscuous inhibitors operating via colloidal aggregation (by performing detergent-free and detergent-containing comparison screens). Cruzain was assayed by the use of fluorogenic coumarin-based substrate Z-FR-AMC: proteolytic cleavage releases AMC, whose fluorescence is measured at 360 nm excitation and 450 nm emission. Purified cruzain was supplied by the labs of Prof. James McKerrow and Brian Shoichet, UC San Francisco.
This assay had 0.01% Triton X-100 concentration. See also releated assay "qHTS Assay for Promiscuous and Specific Inhibitors of Cruzain (without detergent)" with 0.00005% Triton X-100.
See following references for additional details: […]
Three uL of enzyme or buffer were dispensed to 1536-well Greiner black solid bottom plates. […] The plates were immediately transferred to and read 4 times every 30 seconds for 2 min on ViewLux High-throughput CCD imager (Perkin-Elmer) using 360 nm excitation and 450 nm emission fluorescence protocol. The fluorescence intensity difference between the third and the first time points (time lapse of 60 seconds) was used to compute reaction progress.
In general terms: In qHTS, concentration-response curves come from the screen itself.
On to `O=[N+]([O-])C(Cl)(Cl)Cl`, for which the max response, negative = inhibition was inactive: 8.13%.

For the molecule `CN(CCCl)CCCl`, the max response, negative = inhibition is inactive: -2.75% and inactive: -2.66%.
